{"sequences": {"note": "Chains of the proteins cited; added tags and fusions are not shown. Lines headed by an entry give the natural chain unless they say otherwise; changes in a name come on top.", "UniProt P30531": "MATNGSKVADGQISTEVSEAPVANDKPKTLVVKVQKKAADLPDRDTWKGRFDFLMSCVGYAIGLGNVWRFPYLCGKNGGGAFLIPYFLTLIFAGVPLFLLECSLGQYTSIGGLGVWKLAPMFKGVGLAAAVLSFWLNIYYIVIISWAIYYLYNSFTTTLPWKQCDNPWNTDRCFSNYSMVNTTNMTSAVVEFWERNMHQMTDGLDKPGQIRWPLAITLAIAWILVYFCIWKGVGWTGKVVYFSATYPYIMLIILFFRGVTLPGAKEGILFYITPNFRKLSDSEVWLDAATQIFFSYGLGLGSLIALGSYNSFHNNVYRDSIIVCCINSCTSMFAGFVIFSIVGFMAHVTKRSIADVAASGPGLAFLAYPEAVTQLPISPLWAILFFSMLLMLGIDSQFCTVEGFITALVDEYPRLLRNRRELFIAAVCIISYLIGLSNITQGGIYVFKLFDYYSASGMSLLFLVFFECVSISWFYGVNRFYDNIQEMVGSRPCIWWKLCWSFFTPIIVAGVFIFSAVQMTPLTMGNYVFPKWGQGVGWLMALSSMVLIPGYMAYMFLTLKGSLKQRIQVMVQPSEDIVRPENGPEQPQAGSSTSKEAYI"}, "source": "paper PMC2764797", "about": "(Neurochemistry international, 2009)", "target": "GAT1 (Homo sapiens, UniProt P30531)", "assay_type": "cell-based"}
{"compound": "O=C(O)C1CCCN(CCC=C(c2ccccc2)c2ccccc2)C1", "note": "(stereo not shown) [SKF-89976A, 1-(4,4-Diphenyl-3-butenyl)-3-piperidinecarboxylic acid]", "values": [{"measurement": "Ki", "result": "0.64 ± 0.05", "unit": "µM"}]}
